pIC50: −log10 of the molar value.
Target: MST1 (Homo sapiens (Human), UniProt Q13043)
Assay: MST1 biochemical LanthaScreen Eu Kinase Binding Assay
Settings: read-out: Kinase Binding assay-MST1 IC50

By UniProt entry, the sequences of proteins in these tests, tags left out.
UniProt Q13043, whole entry: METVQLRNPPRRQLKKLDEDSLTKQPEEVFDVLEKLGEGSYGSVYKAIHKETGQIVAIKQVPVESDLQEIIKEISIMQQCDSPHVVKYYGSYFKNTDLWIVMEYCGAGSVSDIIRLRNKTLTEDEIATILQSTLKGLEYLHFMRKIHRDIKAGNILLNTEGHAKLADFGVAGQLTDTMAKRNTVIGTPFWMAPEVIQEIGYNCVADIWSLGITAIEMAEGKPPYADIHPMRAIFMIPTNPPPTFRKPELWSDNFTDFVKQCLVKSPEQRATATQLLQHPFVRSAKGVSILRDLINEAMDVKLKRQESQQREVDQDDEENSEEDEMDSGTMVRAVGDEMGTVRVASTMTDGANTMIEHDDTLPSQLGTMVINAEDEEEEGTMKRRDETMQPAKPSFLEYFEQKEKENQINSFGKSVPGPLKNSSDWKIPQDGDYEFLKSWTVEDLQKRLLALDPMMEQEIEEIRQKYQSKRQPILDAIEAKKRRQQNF

Structure (SMILES): CCOc1cc2ncc(C#N)c(Nc3ccc(OCCN4CCc5ccccc5C4)c(Cl)c3)c2cc1NC(=O)CCCN(C)C
- pIC50: 6.00 to 7.00
